In PubChem BioAssay AID588676 (Johns Hopkins Ion Channel Center, 2011):
This is a selection; strong and weak results do not stand in their true shares. Activity calls are given as the source filed them.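 Rule for the calls: active = calcium-response B-score plate-corrected more than 3 library SD below zero, starting fluorescence within 5 deviations, no agonist response on first addition; inactive = the rest.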

Chains of the proteins cited; added tags and fusions are not shown.
UniProt Q96LB2, whole entry: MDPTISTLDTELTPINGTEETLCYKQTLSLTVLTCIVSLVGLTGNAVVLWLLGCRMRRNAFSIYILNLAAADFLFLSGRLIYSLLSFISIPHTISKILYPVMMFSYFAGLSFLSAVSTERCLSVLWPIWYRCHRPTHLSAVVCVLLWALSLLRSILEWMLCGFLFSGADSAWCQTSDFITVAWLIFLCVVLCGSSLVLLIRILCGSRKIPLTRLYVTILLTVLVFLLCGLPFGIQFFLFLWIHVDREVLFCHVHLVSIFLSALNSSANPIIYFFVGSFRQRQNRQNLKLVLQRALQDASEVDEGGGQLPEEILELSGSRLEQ

Molecular target: Mas-related G-protein coupled receptor member X1 (Homo sapiens) (UniProt Q96LB2)
Assay: blockade of BAM8-22-evoked MrgX1 calcium response – HEK293 cells, Fluo-4 calcium flux, primary screen (AID 588676)
Conditions: Fluo-4, BAM8-22 antagonism, at 10 µM

SMILES | outcome
CCN(CC)CCCOC(=O)C(O)(c1ccccc1)C1CCCCC1 (centres undefined) | inactive
O=C(OC1CN2CCC1CC2)c1ccccc1 (centres undefined) | inactive
CP(=O)(Nc1ccccc1)Oc1ccc(F)cc1 (centres undefined) | inactive
O=[N+]([O-])c1cc([N+](=O)[O-])c(OC2CCCCC2O)c([N+](=O)[O-])c1 (centres undefined) | inactive
CCCCCOc1ccc(NP(C)(=O)Oc2ccc(Cl)cc2Cl)cc1 (centres undefined) | inactive
CN(C)C(=O)Oc1noc2ccccc12 | inactive
Cc1ccccc1OP(=O)(Nc1ccccn1)Oc1ccccc1C | inactive
COc1ccc(OP(C)(=O)Nc2cccc(Br)c2)cc1 (centres undefined) | inactive
CN(C)C1(CNC(=O)c2ccc(Cl)c(S(N)(=O)=O)c2)CCCCC1 | inactive
O=P(Nc1ccccn1)(c1ccc(Br)cc1)c1ccc(Br)cc1 | inactive
C[C@H]1OP(=O)(Oc2ccccc2)[C@H](O)[C@H](O)[C@H]1N=[N+]=[N-] (some centres undefined) | inactive
O=P(Nc1nc2ccccc2s1)(c1ccccc1)c1ccccc1 | inactive
CN(C)CCOC(=O)C(O)(c1ccccc1)C1CCCCC1 (centres undefined) | inactive
COc1ccc(NP(C)(=O)Oc2ccccc2OC)cc1 (centres undefined) | inactive
O=[N+]([O-])c1ncn(CCn2cnc([N+](=O)[O-])n2)n1 | inactive
O=[N+]([O-])c1ccc(OP2(=O)COCCO2)cc1 (centres undefined) | inactive
CC(=O)NC(SC(=S)N(C)C)C(Cl)(Cl)Cl (centres undefined) | inactive

SMILES | outcome
O=[N+]([O-])c1cc([N+](=O)[O-])c(NCC2CCS(=O)(=O)C2)c([N+](=O)[O-])c1 (centres undefined) | inactive
O=[As](O)(c1ccccc1)c1ccc(O)cc1 | inactive
C(Cc1nn[nH]n1)Cc1nn[nH]n1 | inactive
Nc1ccc([As](=O)(O)c2ccc([N+](=O)[O-])cc2)cc1 | inactive
O=C(OC1CN2CCC1CC2)c1cccc(Cl)c1 (centres undefined) | inactive
CP(=O)(Nc1ccc(SC(F)(F)F)cc1)Oc1ccc(F)cc1 (centres undefined) | inactive
O=P(Nc1nccs1)(c1ccccc1)c1ccccc1 | inactive
CC(C)C(=O)NC(Sc1ccccc1)C(Cl)(Cl)Cl (centres undefined) | inactive
CCOP(C)(=S)SCC(=O)NC(C)(CC)C(=O)O (centres undefined) | inactive
c1nnnn1CCn1cnnn1 | inactive
CP(=O)(Nc1ccc2c(c1)OCCO2)Oc1ccccc1 (centres undefined) | inactive
Cc1ccccc1NP(C)(=O)Nc1ccccc1C | inactive
COc1ccc(C2=NCC(CBr)S2)cc1 (centres undefined) | inactive
COc1ccc(OP(C)(=O)Nc2ccc(Br)cc2)cc1 (centres undefined) | inactive
CCN(CC)CC(O)COC(=O)C(O)(c1ccccc1)C1CCCCC1 (centres undefined) | inactive
O=C(OCCCN1CCCC1)C(O)(c1ccccc1)C1CCCCC1 (centres undefined) | inactive
CC(=O)N1C2C3N(C(C)=O)C1C1N(C(C)=O)C(C(N1C(C)=O)N3C(C)=O)N2C(C)=O | inactive
